The results in this text go back to patent US20230106353A1 (OXFORD UNIVERSITY INNOVATION, published 2023).

Residue numbers refer to the chain shown, from its start.

This test addresses T1, Ornithine Decarboxylase (ODC), His6-ODC-Ctag (human, UniProt P11926 1-461).
T1 construct: also called ODC1; wild type ODC; not shown: C-tag
T1 sequence: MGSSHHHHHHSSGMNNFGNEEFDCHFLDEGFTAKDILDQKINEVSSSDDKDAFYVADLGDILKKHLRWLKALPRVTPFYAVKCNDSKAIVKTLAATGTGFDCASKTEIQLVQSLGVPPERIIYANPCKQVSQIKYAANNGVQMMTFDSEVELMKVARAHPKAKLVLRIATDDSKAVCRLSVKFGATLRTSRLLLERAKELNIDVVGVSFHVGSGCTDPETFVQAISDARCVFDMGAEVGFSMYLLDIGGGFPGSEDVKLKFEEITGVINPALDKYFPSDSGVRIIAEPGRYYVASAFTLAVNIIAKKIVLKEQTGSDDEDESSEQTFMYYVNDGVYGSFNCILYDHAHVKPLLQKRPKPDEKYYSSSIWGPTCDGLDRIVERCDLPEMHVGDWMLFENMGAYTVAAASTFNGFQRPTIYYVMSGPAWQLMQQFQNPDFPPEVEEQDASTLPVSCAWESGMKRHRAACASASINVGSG
The test is described as follows: calcium-induced covalent conjugation, 10 µM each overnight at 37° C., SDS-PAGE.

B1:  (other)
chain: MGSGLNDIFEAQKIEWHEGSSHHHHHHFYSDDRLNVTEELTSNDKTRILNVQSRLTDAKRINWRTVLSGGSLYIEIPGGALPEGSKDSFAVLLEFAEEQLRADHVFIAFHKNREDRAALLRTFSFLGFEIVRPGHPLVPKRPDACFMAYTFEGGYDPLILDLDGKGIQTLAPSSISARFDHNADGIATATGWAAAGNGILALDLDNNGKIDSGKEIFGNHSVLSNGTAAAHGYAALAELDSNADGIISALDDTFSSLKVWQDINQDGISQSNELFTLQALGIQSLNLEHQENSKDLGNGNRLTHIGSYTKTDGTTGEMGDVEFASNSLYSRYTDTIELTPEQLQAPNLHGTGRLRDLREAAALSTGLAEILKQYSAAQTKEEQTALLSELVAKWGATD
Regarding B1, the binding result is “binds”.

B2: chimeric protein of SEQ ID NO: 9 (AP-GSS-His6-OAZ, linker, SPM of FrpA) (other)
chain: MGSGLNDIFEAQKIEWHEGSSHHHHHHFYSDDRLNVTEELTSNDKTRILNVQSRLTDAKRINWRTVLSGGSLYIEIPGGALPEGSKDSFAVLLEFAEEQLRADHVFIAFHKNREDRAALLRTFSFLGFEIVRPGHPLVPKRPDACFMAYTFEGVYDPLALDLDGDGIETVAAKGFAGALFDHRNQGIRTATGWVSADDGLLVRDLNGNGIIDNGAELFGDNTKLADGSFAKHGYAALAELDSNGDNIINAADAAFQTLRVWQDLNQDGISQANELRTLEELGIQSLDLAYKDVNKNLGNGNTLAQQGSYTKTDGTTAKMGDLLLAADNLHSRFKDKVELTAEQAKAANLAGIGRLRDLREAAALSGDLANMLKAYSAAETKEAQLALLDNLIHKWAETD
As for B2, the binding result was “binds”.

B3: chimeric protein of SEQ ID NO: 10 (AP-GSS-His6-OAZ, linker, SPM of FrpC) (other)
chain: B2 chain with A172T, A178S, R183T, Q185N
For B3, the binding result is reported as “binds”.

B4:  (other)
chain: MGSGLNDIFEAQKIEWHEGSSHHHHHHFYSDDRLNVTEELTSNDKTRILNVQSRLTDAKRINWRTVLSGGSLYIEIPGGALPEGSKDSFAVLLEFAEEQLRADHVFIAFHKNREDRAALLRTFSFLGFEIVRPGHPLVPKRPDACFMAYTFEGIVDPLALDLDGNGIQTTATAGFSGSLFDHNKDGIRTATGWVASGDGLLVRDLNGNGIIDNGGELFGENTLLADGTLAQHGYAALAELDSNADGVVDANDAAFATLRVWQDKNQDGISQADELHTLADLGIQSLNTAYEDVNQDLGNGNSIAQLGSYTKTDGSTAEMADLLFHNDHLYSRFAERIELTAEQSRAANLSGIGRVRDLREAAALFGDLSATLQSYSQADTKQVQMALLDKLVQKWAETD
For the molecule B4, the binding result was “binds”.
